Experimental data taken from PubChem BioAssay AID1224863 (Southern Research Institute, 2016).
About 15 (0.1%) of roughly 10,000 compounds were called active.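 Rule for the calls: active = highest signal at least 8 times the median of untreated cell-only control wells at some dose; inactive = the rest.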 A selection follows.

Amino acid sequences for entries named in this document (tags omitted). Chains listed by the source or under a name are the forms on record and can include a tag or linker.
UniProt P13569, with tags, fused parts or gaps F508del: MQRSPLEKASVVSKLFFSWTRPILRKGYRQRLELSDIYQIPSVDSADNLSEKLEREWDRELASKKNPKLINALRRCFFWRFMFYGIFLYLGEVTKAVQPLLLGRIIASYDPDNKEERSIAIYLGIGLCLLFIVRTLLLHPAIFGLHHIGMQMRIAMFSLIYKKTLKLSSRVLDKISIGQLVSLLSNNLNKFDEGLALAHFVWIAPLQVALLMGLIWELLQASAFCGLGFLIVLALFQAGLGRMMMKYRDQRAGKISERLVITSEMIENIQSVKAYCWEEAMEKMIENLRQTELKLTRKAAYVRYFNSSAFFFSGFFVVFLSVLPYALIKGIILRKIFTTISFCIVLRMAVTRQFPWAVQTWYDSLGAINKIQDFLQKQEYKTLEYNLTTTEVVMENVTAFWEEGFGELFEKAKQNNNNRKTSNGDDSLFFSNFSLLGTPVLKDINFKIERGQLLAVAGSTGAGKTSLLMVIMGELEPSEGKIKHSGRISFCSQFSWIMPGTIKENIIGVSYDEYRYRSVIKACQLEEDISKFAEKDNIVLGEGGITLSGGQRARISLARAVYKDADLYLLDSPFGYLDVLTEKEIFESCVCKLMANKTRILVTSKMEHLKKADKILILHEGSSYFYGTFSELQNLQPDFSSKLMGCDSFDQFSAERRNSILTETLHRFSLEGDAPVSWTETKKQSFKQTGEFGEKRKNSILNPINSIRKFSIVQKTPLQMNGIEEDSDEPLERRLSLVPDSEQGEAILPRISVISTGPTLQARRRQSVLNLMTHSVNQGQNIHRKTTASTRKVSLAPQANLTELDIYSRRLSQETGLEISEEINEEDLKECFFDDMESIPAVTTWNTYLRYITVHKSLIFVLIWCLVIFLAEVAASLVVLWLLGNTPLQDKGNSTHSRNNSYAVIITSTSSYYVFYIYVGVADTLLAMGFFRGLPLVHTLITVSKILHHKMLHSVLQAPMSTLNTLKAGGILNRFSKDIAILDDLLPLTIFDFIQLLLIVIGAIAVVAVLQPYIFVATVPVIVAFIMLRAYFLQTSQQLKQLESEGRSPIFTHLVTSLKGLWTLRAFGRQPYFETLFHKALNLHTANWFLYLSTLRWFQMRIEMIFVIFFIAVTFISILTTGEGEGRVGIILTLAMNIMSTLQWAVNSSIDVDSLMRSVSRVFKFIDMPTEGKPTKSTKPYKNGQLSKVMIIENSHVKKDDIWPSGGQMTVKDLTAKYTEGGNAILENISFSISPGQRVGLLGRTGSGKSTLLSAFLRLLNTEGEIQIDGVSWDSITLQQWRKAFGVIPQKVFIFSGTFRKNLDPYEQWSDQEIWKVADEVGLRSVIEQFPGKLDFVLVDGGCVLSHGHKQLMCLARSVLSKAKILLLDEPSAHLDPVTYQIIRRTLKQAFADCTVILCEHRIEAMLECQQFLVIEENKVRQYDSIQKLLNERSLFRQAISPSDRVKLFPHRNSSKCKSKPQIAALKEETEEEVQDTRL

Legend:
[1] = total CFTR protein upregulators, primary screen, cell-based, HeLa F508del-CFTR, immunofluorescence, viability (AID 1224863); conditions: 24 h, stronger effect = higher value; min viability: measured here: HeLa viability, alamarBlue, dose 20, library dosed in µg/mL unless noted; viability: measured here: primary viability 10 ug/mL, library dosed in µg/mL unless noted;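 for fold increase: total CFTR protein by anti-CFTR immunofluorescence in fixed cells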
[2] = target: Cystic fibrosis transmembrane conductance regulator (Homo sapiens) (UniProt P13569); test: as above; conditions: 24 h; fold increase: measured here: primary screen 10 ug/mL, library dosed in µg/mL, stronger effect = higher value unless noted; max fold increase: dose 10, library dosed in µg/mL, stronger effect = higher value unless noted; outcome: library dosed in µg/mL unless noted

| SMILES | viability [1] | fold increase [2] | outcome [2] |
| --- | --- | --- | --- |
| Cc1noc2nc(-c3ccco3)cc(C(=O)OCc3cc(=O)n4cc(Cl)ccc4n3)c12 | 101% | 1.11 | inactive |
| CC1(c2ccccc2)NC(=O)N(Cc2cc(=O)n3ccccc3n2)C1=O (stereo not drawn) | 91% | 1.06 | inactive |
| Cn1ncc2c(NCC3(N4CCCCC4)CCCCC3)ncnc21 | 96% | 1.05 | inactive |
| CC(C(=O)NC1CCCCCC1)N1CCN(C(C)C(=O)NC2CC2)CC1 (stereo not drawn) | 95% | 1.06 | inactive |
| Fc1ccc(-c2[nH]ncc2CNCc2ccccc2Cn2cncn2)cc1 | 104% | 1.01 | inactive |
| CC(c1nnc(-c2cccs2)o1)N1CCC(O)CC1 (stereo not drawn) | 99% | 1.04 | inactive |
| Cn1cc(S(=O)(=O)N2CCN(Cc3nc(N)nc(N)n3)CC2)cc1C(N)=O | 91% | 0.98 | inactive |
| Cn1c(SCc2ccc(-n3cccn3)cc2)nc2ccccc21 | 92% | 0.97 | inactive |
| Cc1sc2nc(CN3CCCC3)nc(-n3nnc(-c4cccnc4)n3)c2c1C | 84% | 1.04 | inactive |
| Cc1cc(C)cc(-c2nnc(SC3CCCCC3=O)o2)c1 (stereo not drawn) | 112% | 1.07 | inactive |
| CC1Oc2ccc(NC(=O)C3=NN(C)C(=O)CC3)cc2NC1=O (stereo not drawn) | 100% | 0.99 | inactive |
| Cc1ccc(C)c(CS(=O)(=O)Cc2ccccc2SC(F)F)c1 | 86% | 1.03 | inactive |
| Cc1oc(C)c(C(=O)Nc2ncn[nH]2)c1C | 86% | 0.86 | inactive |
| CC1CCC(NC(=O)c2ccc([N+](=O)[O-])s2)CC1 (stereo not drawn) | 77% | 0.76 | inactive |
| Cc1ccc(-n2nnnc2SCc2cn3cccc(C)c3n2)cc1C | 79% | 0.98 | inactive |
| C=CCOc1ccc(/C(O)=C2/C(=O)C(=O)N(CCCN(C)C)C2c2cccc(Br)c2)cc1 (stereo not drawn) | 91% | 1.07 | inactive |
| O=S(=O)(c1ccc2ccccc2c1)N1CCN(S(=O)(=O)c2ccccc2Cl)CC1 | 94% | 1.06 | inactive |
| Clc1ccc(-c2nc(Sc3ccccc3Cl)c3c4c(sc3n2)CCC4)cc1 | 91% | 1.15 | inactive |
| Cc1c(C2Nc3ccccc3C(=O)N2c2ccc3c(c2)OCO3)cc(C#N)n1C (stereo not drawn) | 100% | 1.05 | inactive |
| O=C(O)CN1C(=O)COc2cc(Br)ccc21 | 101% | 1.01 | inactive |
| NC1CC(=O)N(c2ccc(Oc3ccccc3)cc2)C1 (stereo not drawn) | 60% | 0.71 | inactive |
| Cc1cn2nc(NC3CCCC3)sc2n1 | 96% | 0.88 | inactive |

| SMILES | viability [1] | fold increase [2] | outcome [2] |
| --- | --- | --- | --- |
| COc1cc(OC)c(CNC(C)c2ccc(F)cc2F)c(OC)c1 (stereo not drawn) | 103% | 1.05 | inactive |
| CSc1ccc(OCC(=O)c2[nH]c(C)c(C(C)=O)c2C)cc1 | 77% | 0.86 | inactive |
| COCCn1c(SCC(=O)c2[nH]c(C)c(C(C)=O)c2C)nc2sc3c(c2c1=O)CCCC3 | 102% | 1.01 | inactive |
| CCCn1c(N)c(C(=O)CN2CCC(O)CC2)c(=O)[nH]c1=O | 91% | 1.07 | inactive |
| COC(=O)c1ccc(C2NC(=O)NC(C)=C2C(=O)c2ccc(Cl)cc2)cc1 (stereo not drawn) | 87% | 1.02 | inactive |
| N#CCCN1CCN(C(=O)C23CC4CC(CC(C4)C2)C3)CC1 | 86% | 1.05 | inactive |
| Cc1nn(Cc2ccccc2Cl)c(C)c1CN(C)c1ccc2nnnn2n1 | 101% | 0.94 | inactive |
| O=C1c2ccccc2S(=O)(=O)NN1Cc1ccc(Br)cc1 | 110% | 0.99 | inactive |
| Cc1ccc(-c2nnc(NCCC(C)C)c3ccccc23)cc1C | 97% | 0.94 | inactive |
| CSc1ncccc1C(=O)NC1CC2CC1C1CCCC21 (stereo not drawn) | 103% | 1.14 | inactive |
| C=CCNC(=O)NC(=O)CN(Cc1nccn1C(F)F)C1CC1 | 83% | 1.18 | inactive |
| C=CCn1c(SCC)nnc1-c1ccc([N+](=O)[O-])cc1 | 88% | 1.02 | inactive |
| CC(OC(=O)C1=Cc2ccccc2OC1)C(=O)C12CC3CC(CC(C3)C1)C2 (stereo not drawn) | 91% | 1.1 | inactive |
| O=C1C2CCCCC2C(=O)N1CC(O)COCc1ccc2c(c1)OCO2 (stereo not drawn) | 99% | 1.1 | inactive |
| C=CCNCC(F)(F)F | 95% | 1.07 | inactive |
| O=S(=O)(C1=Cc2ccccc2CC1)N1CCCC1c1ccc(F)cc1 (stereo not drawn) | 97% | 0.99 | inactive |
| CCCN(CC1CC1)C(=O)CSc1nc(C)nc2sc3c(c12)CCCC3 | 81% | 0.94 | inactive |
| CC1CCCN(S(=O)(=O)N2CCC(N3CCCc4ccccc43)CC2)C1 (stereo not drawn) | 82% | 0.89 | inactive |
| O=C(C1CCCO1)N1CCN(Cc2ccc3c(c2)CCO3)CC1 (stereo not drawn) | 90% | 1.05 | inactive |
| O=c1oc2ccc([N+](=O)[O-])cc2n1CN1CCN(c2cccc(Cl)c2)CC1 | 82% | 0.77 | inactive |
| Cc1ccc(C2(C)NC(=O)N(Cc3coc(-c4ccc(C)cc4C)n3)C2=O)cc1 (stereo not drawn) | 85% | 0.96 | inactive |
| O=S(=O)(Nc1cc2c(cc1Br)OCCO2)c1ccc(Br)cc1 | 88% | 1.03 | inactive |

| SMILES | viability [1] | fold increase [2] | outcome [2] |
| --- | --- | --- | --- |
| Cc1cc(C)n2c(SCc3cc(-c4ccccc4)on3)nnc2n1 | 97% | 1.06 | inactive |
| CCCCS(=O)(=O)Nc1ccc(F)c(N)c1 | 102% | 0.96 | inactive |
| O=C(CNC(=O)c1ccco1)NC1CCC2CCCCC2C1 (stereo not drawn) | 75% | 1.02 | inactive |
| Cc1cc(C(=O)CSc2nnc(-c3ccoc3C)o2)c(C)s1 | 84% | 0.89 | inactive |
| O=C(CSc1nnnn1C1CC1)NC(c1cccs1)C1CCCC1 (stereo not drawn) | 90% | 0.94 | inactive |
| CCOC(=O)c1oc2ccccc2c1COC(=O)c1ccc2c(c1)CCC(=O)N2 | 81% | 1 | inactive |
| CCn1cnnc1SCCCCN1C(=O)c2ccccc2C1=O | 106% | 1.03 | inactive |
| CC(=O)N1C=Cc2ccccc2C1CC(=O)Nc1cc2c(cc1Cl)OCO2 (stereo not drawn) | 89% | 0.97 | inactive |
| O=S(=O)(Cc1ccc(F)cc1Cl)C12CC3CC(CC(C3)C1)C2 | 104% | 1.1 | inactive |
| CCOCCCNc1nnc(SC(C(=O)NC(N)=O)C(C)C)s1 (stereo not drawn) | 97% | 0.95 | inactive |
| Cc1nc(CNC(C(=O)O)C(C)C)cs1 (stereo not drawn) | 88% | 1.06 | inactive |
| CC(C)Cn1nnc(-c2ccc(Cl)cc2)n1 | 99% | 1.4 | inactive |
| O=C(O)c1cc(C2CC2)nc2onc(-c3ccco3)c12 | 109% | 1.11 | inactive |
| N#Cc1nc2c(S(=O)(=O)c3ccc(Cl)cc3)c(N)n(Cc3ccc(C(F)(F)F)cc3)c2nc1C#N | 87% | 0.86 | inactive |
| Cc1cc(C)n2c(=S)n(CN(C)Cc3ccccc3Cl)nc2n1 | 97% | 0.97 | inactive |
| CC(NCC(O)c1ccccc1)c1ccccc1 (stereo not drawn) | 103% | 1.06 | inactive |
| CC(Cc1ccc(Cl)cc1)NC(=O)C1(C)CC1(Cl)Cl (stereo not drawn) | 94% | 0.98 | inactive |
| COc1ccc2c(COC(=O)c3ccc4c(c3)S(=O)(=O)N=C3CCCCCN34)cc(=O)oc2c1 | 83% | 1.02 | inactive |
| CCc1c(C)sc2nc(SCCO)n(CCOC)c(=O)c12 | 95% | 1 | inactive |
| CCOC(=O)C1=C(CC)Nc2ccccc2N=C1NC(=O)C12CC3CC(CC(Cl)(C3)C1)C2 | 85% | 1.09 | inactive |
| Cn1ccc(S(=O)(=O)N2CCN(C(=O)CCC(=O)c3cccs3)CC2)c1 | 103% | 1.19 | inactive |
| CCc1cc(OCCCCNC)ccc1Cl | 104% | 1.06 | inactive |

| SMILES | viability [1] | fold increase [2] | outcome [2] |
| --- | --- | --- | --- |
| Cc1c(C(=O)CN2C(=O)NC3(CCOc4ccccc43)C2=O)sc2ccccc12 (stereo not drawn) | 115% | 1.07 | inactive |
| COC(=O)c1ccc(OCC(=O)c2ccc3c(c2)CCO3)c(OC)c1 | 97% | 1.01 | inactive |
| CC(CCc1ccco1)NC(=O)N1CCN(Cc2nc3scc(-c4cccs4)c3c(=O)[nH]2)CC1 (stereo not drawn) | 92% | 0.93 | inactive |
| c1ccc2c(c1)ncn2CN1CCN(Cc2csc3ccccc23)CC1 | 107% | 1.18 | inactive |
| Cc1cccc(CN2CCN(CN3C(=O)C(=O)N(C(C)C)C3=O)CC2)c1 | 95% | 1.02 | inactive |
| CN(C)S(=O)(=O)N1CCN(C(=O)Nc2cccc3c2CCCC3)CC1 | 102% | 0.97 | inactive |
| COCC(C)NC(=O)c1sccc1C (stereo not drawn) | 102% | 0.9 | inactive |
| CC(C)(C)OC(=O)N1CC=C(n2c(=O)n(CN3CCN(c4ccccc4)CC3)c3ccccc32)CC1 | 98% | 1.06 | inactive |
| COc1ccc(C)cc1-n1nnnc1SCC1CC1(Cl)Cl (stereo not drawn) | 86% | 0.87 | inactive |
| Cn1nnnc1SCc1ncc(-c2ccc(F)cc2)o1 | 94% | 1.03 | inactive |
| CN(C)S(=O)(=O)c1ccc(CN2C(=O)NC(C)(c3ccco3)C2=O)o1 (stereo not drawn) | 97% | 0.98 | inactive |
| COc1ccc(S(=O)(=O)Nc2ccc(N3CCCC3)cc2)cc1OC | 84% | 0.85 | inactive |
| N#Cc1ccc(CS(=O)(=O)N2CCCCCCC2)cc1 | 95% | 1.03 | inactive |
| Nc1cnn(CCO)c1 | 92% | 0.96 | inactive |
| CC(c1cc2ccccc2o1)N(C)Cc1noc(C(C)(C)C)n1 (stereo not drawn) | 89% | 0.88 | inactive |
| N#Cc1nncn1-c1ncnc2sc3c(c12)CCC3 | 95% | 1.06 | inactive |
| CCNc1nc(C)nc2sc(CC)cc12 | 84% | 0.96 | inactive |
| CCC(C)(C)NC(=O)CCNC(=O)/C=C/c1ccco1 | 80% | 0.85 | inactive |
| CC(C)Sc1nc2cc(Cl)ccc2c(=O)n1CC1CCCO1 (stereo not drawn) | 90% | 0.87 | inactive |
| CC(C)(C)N=C1NN=C(c2cccc(F)c2)CS1 | 75% | 0.85 | inactive |
